Source: patent US20260240823A1

Experiments:
T47D = test: In vitro cell viability assay (CellTitre-Glo); settings: 72 h exposure
BT549 = test: In vitro cell viability assay (CellTitre-Glo); settings: BT549, 72 h exposure
[1] = tested on: normal breast epithelial (HMEC) cells; test: In vitro cell viability assay (CellTitre-Glo); settings: HMEC normal mammary epithelial cells
lipid synthesis = settings: Phase I/II clinical trials; cited from earlier work
[2] = cited from earlier work
MOLP-8 = test: High throughput in vitro cell line screen; settings: MOLP-8, Myeloma
Method: (§1) A high throughput in vitro cell line screen including over 500 human cancer cell lines was performed to assess singe agent PF-05175157 activity beyond breast cancer cells. Cell lines with calculated IC50 less than 10 μM (~4 μg/mL) are provided herein. The results are consistent with reports in the literature that ACC inhibition impairs cell viability in a broad range of cancers.

PLC/PRF5 = test: High throughput in vitro cell line screen; settings: PLC/PRF5, Liver
Method: as §1

HI1944 = test: High throughput in vitro cell line screen; settings: HI1944, Lung
Method: as §1

KMS-12BM = test: High throughput in vitro cell line screen; settings: Myeloma
Method: as §1

SNU-182 = test: High throughput in vitro cell line screen; settings: SNU-182, Liver
Method: as §1

RPMI-8226 = test: High throughput in vitro cell line screen; settings: RPMI-8226, Myeloma
Method: as §1

RMG-1 = test: High throughput in vitro cell line screen; settings: RMG-1, Ovarian
Method: as §1

CAMA-1 = test: High throughput in vitro cell line screen; settings: CAMA-1, Breast
Method: as §1

T-47D = test: High throughput in vitro cell line screen; settings: Breast
Method: as §1

OVK-18 = test: High throughput in vitro cell line screen; settings: OVK-18, Ovarian
Method: as §1

JHH-4 = test: High throughput in vitro cell line screen; settings: JHH-4, Liver
Method: as §1

MM.1R = test: High throughput in vitro cell line screen; settings: Myeloma
Method: as §1

S34 = test: High throughput in vitro cell line screen; settings: S34, Sarcoma
Method: as §1

H2342 = test: High throughput in vitro cell line screen; settings: H2342, Lung
Method: as §1

HCC1419 = test: High throughput in vitro cell line screen; settings: HCC1419, Breast
Method: as §1

KASUMI-1 = test: High throughput in vitro cell line screen; settings: KASUMI-1, AML
Method: as §1

KMS-27 = test: High throughput in vitro cell line screen; settings: KMS-27, Myeloma
Method: as §1

BIRCH = test: High throughput in vitro cell line screen; settings: Sarcoma
Method: as §1

A 498 = test: High throughput in vitro cell line screen; settings: A 498, Kidney
Method: as §1

H661 = test: High throughput in vitro cell line screen; settings: H661, Lung
Method: as §1

H1563 = test: High throughput in vitro cell line screen; settings: H1563, Lung
Method: as §1

U266B1 = test: High throughput in vitro cell line screen; settings: U266B1, Myeloma
Method: as §1

KMS-20 = test: High throughput in vitro cell line screen; settings: KMS-20, Myeloma
Method: as §1

KMS-34 = test: High throughput in vitro cell line screen; settings: KMS-34, Myeloma
Method: as §1

NCI-H929 = test: High throughput in vitro cell line screen; settings: NCI-H929, Myeloma
Method: as §1

EN = test: High throughput in vitro cell line screen; settings: Endometrial
Method: as §1

LP-1 = test: High throughput in vitro cell line screen; settings: LP-1, Myeloma
Method: as §1

JIMT-1 = test: High throughput in vitro cell line screen; settings: JIMT-1, Breast
Method: as §1

BT474 = test: Apoptosis assay (Annexin V/PI); settings: BT474, 72 hours
Method: (§2) Cell lines were plated in duplicate in 25 mm tissue culture dishes or in 6-well tissue culture plates and treated 24 hours later with the indicated concentrations of PF-05175157, Docetaxel (10 nM, as a positive control) or with a DMSO control. At 24- and 72-hours post-treatment, cells were harvested and stained with Annexin V-FITC according to the manufacturer's instructions (ANNEX300F, BioRad). Immediately prior to analysis by flow cytometry, Propidium Iodide (1 μg/mL) was added to the cells and assayed for apoptosis on an LSR Fortessa Cytometer (BD Biosciences). Analysis was carried out using FlowJo software (BD Biosciences). Annexin V single positive and Annexin V/PI double positive cells were considered apoptotic.

MDAMB468 = test: Apoptosis assay (Annexin V/PI)
Method: as §2

[3] = tested on: MCF7 and its fulvestrant resistant subclone (MCF7/FR); test: In vitro combination with fulvestrant or TBV-3166

Compound: Cc1nc2ccc(C(=O)N3CCC4(CC3)CC(=O)c3c(cnn3C(C)C)C4)cc2[nH]1
- estimated EC50, cell viability (T47D): 0.96 µg/mL
- estimated EC50, cell viability (T47D; listed as PF05175157): 0.95 µg/mL
- estimated EC50, cell viability (BT549): 66.9 µg/mL
- estimated EC50, cell viability (BT549; listed as PF05175157): 76 µg/mL
- inhibitory effect on HMEC cells [1]: no significant inhibitory effect
- effect on lipid synthesis in patients (lipid synthesis): significant inhibitory effect on lipid synthesis
- plasma Cmax ([2]; Phase I/II clinical trials, healthy volunteers and patients with type 2 diabetes): 20000 to 40000 ng/mL
- Cmax that can be achieved in human serum ([2]; human serum): 20000 ng/mL
- IC50 (MOLP-8): 0.0032 µM
- IC50 (PLC/PRF5): 3.94 µM
- IC50 (HI1944): 2.57 µM
- IC50 (KMS-12BM): 0.0032 µM
- IC50 (SNU-182): 6.28 µM
- IC50 (RPMI-8226): 4.26 µM
- IC50 (RMG-1): 4.27 µM
- IC50 (CAMA-1): 4.77 µM
- IC50 (T-47D): 6.82 µM
- IC50 (OVK-18): 9.78 µM
- IC50 (JHH-4): 10 µM
- IC50 (MM.1R): 9.43 µM
- IC50 (S34): 0.0032 µM
- IC50 (H2342): 7.29 µM
- IC50 (HCC1419): 4.82 µM
- IC50 (KASUMI-1): 0.0032 µM
- IC50 (KMS-27): 0.457 µM
- IC50 (BIRCH): 9.91 µM
- IC50 (A 498): 0.0032 µM
- IC50 (H661): 9.27 µM
- IC50 (H1563): 7.83 µM
- IC50 (U266B1): 8.49 µM
- IC50 (KMS-20): 0.0032 µM
- IC50 (KMS-34): 0.0032 µM
- IC50 (NCI-H929): 0.0032 µM
- IC50 (EN): 1.54 µM
- IC50 (LP-1): 2.03 µM
- IC50 (JIMT-1): 0.475 µM
- apoptosis (BT474): significant increase in apoptosis
- percentage of apoptotic cells upon treatment (BT474; 10 μg/mL, from 4% without treatment): 8%
- apoptosis (MDAMB468; MDAMB468, 72 hours): significant increase in apoptosis
- percentage of apoptotic cells upon treatment (MDAMB468; MDMBA468, 72 hours, 10 μg/mL, from 7.7% without treatment): 17.8%
- additive effect or synergy in combination with TBV-3166 [3]: An additive effect or synergy was not definitively observed
- additive effect or synergy in combination with fulvestrant [3]: An additive effect or synergy was not definitively observed
